Literature values in patent publication US9439898B2, “Methods for novel drug discovery, treatment and selective targeting for gefitinib-resistant non-small-cell lung cancer harboring T790M mutation” (Macau University of Science and Technology, priority 2014, dated 2016).

Key:
Conditions in all cases: cited from earlier work
[1] = system: H1650 (EGFR^Exon19 deletion)
H1975(EGFR^L858R+T790M) = system: H1975(EGFR^L858R+T790M)
A549 (EGFR^wild-type) = system: A549 (EGFR^wild-type)
HCC827(EGFR^L858R) = system: HCC827(EGFR^L858R)

## COc1cc2ncnc(Nc3ccc(F)c(Cl)c3)c2cc1OCCCN1CCOCC1 [Gefitinib]
[1]
  Gefitinib resistance: resistance
H1975(EGFR^L858R+T790M)
  Gefitinib resistance: resistance
A549 (EGFR^wild-type)
  Gefitinib resistance: resistance
HCC827(EGFR^L858R)
  Gefitinib resistance: sensitive
